Laboratory results taken from ChEMBL document CHEMBL1147952.

Experiments:
[1] = ABTS radical scavenging activity at 200 ppm; assay type: functional
[2] = DPPH radical scavenging activity at 200 ppm; assay type: functional

Q: Which Activity [1] does the source give for O=C1O[C@H]([C@@H](O)CO)C(O)=C1O here?
A: The Activity was 89%.

Q: And the Activity [2]?
A: The Activity was 88%.
